Compound activity: PubChem, National Center for Advancing Translational Sciences (NCATS)
An excerpt weighted towards active compounds, which were near 13% of everything screened.
miR-21 FLuc: miR-21 reporter, rising signal | 340,000 tested, under 10 active | AID 2288 | HeLa miR-21 FLuc reporter, luciferase, 48 h | Potency, µM (titrated, usually from 38.3 µM), for inactives: at the highest dose reporter change, positive = more light; active = well fitted rising curve with a large enough effect; inconclusive = small, poorly fitted or top-dose-only effect; inactive = no such curve, though single readings can be large or run the other way;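 further: % of control where 0% means no effect; miR-21 action dims this reporter so a rising signal means less miR-21 action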
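HeLa miR-21-FLuc reporter line, endogenous miR-21; 2000 cells/well in DMEM/10% FBS; compound titration up to ~40uM final, 48 h, 37 degree Celsius; luciferase detection reagent, 15 min lysis, CCD luminescence.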
LMNA splice mod: LMNA splicing modulation; HeLa LMNA splicing GFP/RFP minigene ratio, 48 h; Potency, µM (doses to about 46.1 µM), without a hit: at the top dose ratio change, negative = inhibition, usual class: inhibitors; 200,000 compounds, 0.01% hits; AID 1487; active means well fitted inhibition curve with a large enough effect in the signal ratio, with a control signal flat, not every such curve was filed as active; inconclusive means small, poorly fitted or top-dose-only effect, or effect the other way, or a change in a side signal; the % refers to the signal ratio; further: potency means the concentration at half of the fitted maximal effect; on the % scale 0 is the no-effect control and ±100 the full control effect
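S3 HeLa cells stably expressing lamin A-EGFP splicing minigene plus DsRed2, 600 cells/well, 48 h compound exposure at 37C. Laser-scanning cytometry; analysed as GFP (500-530 nm)/RFP (575-640 nm) total intensity ratio; 0.5% DMSO vehicle.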
JMJD2E inh: inhibitors of human JMJD2E histone demethylase; B2RXH2; JMJD2E catalytic domain, FDH-coupled NADH fluorescence (FDH is formaldehyde dehydrogenase); Potency, µM (top dose mostly 57.1 µM), for inactives: top-dose activity change, negative = inhibition, hits mostly inhibitors; 230,000 compounds, 1.6% hits; active means well fitted inhibition curve with a large enough effect, not every such curve was filed as active; inconclusive means small, poorly fitted or top-dose-only effect, or another doubt; inactive means no such curve, though single readings can be large or run the other way;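 further: potency means the concentration at half of the fitted maximal effect; 0% = wells with enzyme and -100% = buffer wells without enzyme; nearly all actives have a fitted effect of over 50% in size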
Sfp inh: qHTS Assay for Inhibitors of Bacillus subtilis Sfp phosphopantetheinyl transferase (PPTase); Biochemical Sfp PPTase activity, qHTS; Potency, µM, for inactives: max response, negative = inhibition, actives largely listed as inhibitors; actives 3.5% (n = 310,000); AID 1490, 2009; active = well fitted inhibition curve with a large enough effect; inconclusive = small, poorly fitted or top-dose-only effect, or another doubt; inactive = no such curve, though single readings can be large or run the other way;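 note: the enzyme is Sfp with the accession as filed and its product quenches rhodamine fluorescence; potency is the fitted concentration of half-maximal effect; 0% = enzyme reaction without inhibitor and -100% = no enzyme wells; top concentration of the series not given in the record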
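Fluorescence-quenching assay: 15 nM Sfp-PPTase preincubated 15 min at room temperature with compound, then 5 uM rhodamine-CoA and 12.5 uM BHQ-2-labelled YbbR peptide added. Fluorescence (ex 525/em 598 nm) read at start and after 30 min; difference gives rate.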
G9a block: blocks human histone lysine methyltransferase G9a; Q96KQ7; G9a H3K9 monomethylation, AlphaScreen, 2 h; Potency, µM (highest dose often 102 µM), for inactives: top-dose activity, negative = inhibition, hits mostly inhibitors; 350,000 compounds, 8.8% hits; further: potency means the concentration at half of the fitted maximal effect; on the % scale 0 is the no-effect control and ±100 the full control effect; nearly all actives have a fitted effect of over 75% in size
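AlphaScreen read-out: biotin-H3K9 peptide (500 nM) methylation by 20 nM enzyme with 20 uM SAM, 2 h at room temperature after 15 min compound preincubation; anti-monomethyl H3K9 antibody plus donor/acceptor beads, 10 min dark.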
ALDH1A1 inh: ALDH1A1 (human) enzyme inhibition. Purified ALDH1A1, NADH fluorescence, propionaldehyde substrate. 220,000 compounds, 7.3% hits. Potency, µM (doses to about 75.3 µM), for the others: at the top dose activity, negative = inhibition, most hits filed as inhibitors; active means well fitted inhibition curve with a large enough effect, not every such curve was filed as active; inconclusive means small, poorly fitted or top-dose-only effect, or another doubt; inactive means no such curve, though single readings can be large or run the other way;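 further: potency means the concentration at half of the fitted maximal effect; plate controls were no enzyme wells and a reference inhibitor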
* hit, by the source's call; ? = inconclusive; · = no result given; [ ] = remark or other dose. Unless noted, the call rests on the fitted dose curve; in most records, active means well fitted curve in the direction sought with a large enough effect; inconclusive means small, poorly fitted or top-dose-only effect, or another doubt; inactive means no such curve, though single readings can be large; an effect the other way counts as inactive or inconclusive.

1. Cc1ccccc1-n1c(O)c(/C=N/Nc2nc3c(c(=O)n(C)c(=O)n3C)n2C)c(=O)[nH]c1=S
2. Cc1ccccc1-n1c(O)c(/C=N/NC(=O)c2ccccc2O)c(=O)[nH]c1=S
3. Cc1cccc(-n2c(O)c(/C=N/Nc3nc4c(c(=O)n(C)c(=O)n4C)n3C)c(=O)[nH]c2=S)c1
4. Cn1c(=O)c2c(nc(N/N=C/c3c(O)n(C4CCCCC4)c(=S)[nH]c3=O)n2C)n(C)c1=O
5. Cc1cccc(-n2c(O)c(C=NCCN3CCNCC3)c(=O)[nH]c2=S)c1
6. NCC(CC(=O)O)c1ccc(Cl)s1 (stereo unspecified)
7. O=C1NC(=O)C2(Cc3ccccc3N3CCCC32)C(=O)N1c1ccccc1 (stereo unspecified)
8. O=C1NC(=O)C2(Cc3ccccc3N3CCCC32)C(=O)N1 (stereo unspecified)

| entry no. | 1 | 2 | 3 | 4 | 5 | 6 | 7 | 8 |
| --- | --- | --- | --- | --- | --- | --- | --- | --- |
| miR-21 FLuc | 8.0% | -19.8% | -1.9% | 2.0% | -4.8% | · | 1.2% | 1.8% |
| LMNA splice mod | 1.0% | · | -7.6% | · | · | · | ? | -2.4% |
| JMJD2E inh | ? | ? | ? | ? | · | · | ? | ? |
| Sfp inh | 50.1µM* | 5.6% | 56.2µM* | 70.8µM* | -2.2% | 23.9% | ? | -17.2% |
| G9a block | ? | 32.3%[59 µM] | ? | 22.4µM* | -36.4% | 37.0%[59 µM] | 28.2µM* | 50.1µM* |
| ALDH1A1 inh | 12.6µM* | · | 10µM* | · | · | -3.2% | ? | ? |

9. C[C@H](NC(=O)[C@@H](N)Cc1ccc(O)cc1)C(=O)NCC(=O)N(C)[C@@H](Cc1ccccc1)C(=O)NCCO
10. CC(C)NC(=O)N1CCC2(CC1)CCN(C(=O)Oc1ccccc1)CC2
11. C/C=C1/CN2CC[C@]34C(=C(C=O)[C@H]1C[C@@H]23)Nc1ccccc14
12. COc1cc(C(=O)OC2C[C@H]3CC[C@@H](C2)N3)ccc1O (stereo partly specified)
13. Cc1ccccc1-n1nc(C)c2c1NC(=O)CSC2c1ccc(Cl)cc1 (stereo unspecified)
14. CCCCCCCCCC[n+]1cccc([C@@H]2CCCN2C)c1
15. CC1O[C@@H](OC2CC[C@@]3(C=O)C4CC[C@]5(C)C(C6=CC(=O)OC6)CC[C@@]5(O)C4CC[C@]3(O)C2)C(O)C(O)C1O (stereo partly specified)
16. CN(C)c1cccc2c(C#N)ccc(N(C)C)c12

| entry no. | 9 | 10 | 11 | 12 | 13 | 14 | 15 | 16 |
| --- | --- | --- | --- | --- | --- | --- | --- | --- |
| miR-21 FLuc | · | · | · | 3.2% | 0.8% | · | · | 2.4% |
| LMNA splice mod | · | · | · | · | · | · | · | -10.3%[46 µM] |
| JMJD2E inh | · | · | -17.6% | · | · | · | 2.7% | ? |
| Sfp inh | 4.6% | 15.3% | ? | 6.9% | · | 56.2µM* | 3.2% | 2.2% |
| G9a block | 34.6%[59 µM] | -19.0%[12.7 µM] | · | 39.8µM* | 12.6µM* | · | -30.3%[2.33 µM] | 44.7µM* |
| ALDH1A1 inh | -1.1% | 8.2% | -7.8% | · | · | · | 7.4% | ? |

17. Cc1ccc(C(=O)Nc2c(C(=O)Nc3ccc(C)c(C)c3)sc3nc(C)cc(C)c23)cc1
18. CCn1cc(C(=O)NCCc2ccc(OC)c(OC)c2)c(=O)c2cc(S(=O)(=O)N(C)C3CCCCC3)ccc21
19. COc1ccc(CCNC(=O)c2ccc3c(c2)CCN3S(=O)(=O)c2ccc(C)cc2)cc1OC
20. ClC(Cl)(Cl)C(Cl)(Cl)Cl
21. CC1Oc2cc3c(-c4c(O)cc(O)c5c(O)c6c(cc45)OC(C)C(C)C6=O)c(O)cc(O)c3c(O)c2C(=O)C1C (stereo unspecified)
22. COc1cc2c(cc1OC)-c1c(OC)c(OC)c(C=O)c3c1[C@H](C2)N(C)CC3
23. CN(C)c1ccccc1
24. Cc1cccc(N=Nc2ccc(N(C)C)cc2)c1

| entry no. | 17 | 18 | 19 | 20 | 21 | 22 | 23 | 24 |
| --- | --- | --- | --- | --- | --- | --- | --- | --- |
| miR-21 FLuc | -53.0% | 22.0% | 18.6% | · | ? | · | · | -70.2% |
| LMNA splice mod | · | · | · | · | · | · | · | · |
| JMJD2E inh | · | · | · | · | 20µM* | ? | · | · |
| Sfp inh | · | · | · | · | 15.1% | -8.5% | · | -5.8% |
| G9a block | 10.5%[59 µM] | ? | 5.01µM* | · | 12.6µM* | · | · | 8.91µM* |
| ALDH1A1 inh | · | · | · | 9.2% | ? | ? | -5.0% | · |

25. O=C(Oc1ccc(S(=O)(=O)F)cc1F)c1ccccc1Cl
26. COc1ccc2o/c(=N\O)c(C(=O)Nc3ccc(C)cc3)cc2c1
27. Oc1cc2c(cc1O)[C@H]1c3ccccc3CNC1CC2 (stereo partly specified)
28. COc1ccccc1N1CCN(Cc2c(F)cccc2Cl)CC1
29. CCOC(=O)C1CCN(Cc2c(F)cccc2Cl)CC1
30. CC(=O)N1CCN(CC(=O)Nc2ccc(C#N)c(Cl)c2)CC1
31. COc1ccc(CC(=O)Nc2ccc(C#N)c(Cl)c2)cc1S(=O)(=O)N1CCOCC1
32. CC1(C)[C@@H]2CC[C@]1(C)CN(CCC[N+](C)(C)C)C2

| entry no. | 25 | 26 | 27 | 28 | 29 | 30 | 31 | 32 |
| --- | --- | --- | --- | --- | --- | --- | --- | --- |
| miR-21 FLuc | · | -18.2% | · | -0.1% | -5.0% | 0.4% | -4.7% | · |
| LMNA splice mod | · | 17.7%[46 µM] | ? | 1.8% | 3.7% | 2.8%[46 µM] | · | · |
| JMJD2E inh | · | 16.7% | 20µM* | -7.3% | ? | 10.2% | · | · |
| Sfp inh | · | ? | · | -2.3% | ? | 8.8% | 50.1µM* | · |
| G9a block | · | 50.1µM* | 0.501µM* | ? | 3.98µM* | -15.2% | 39.8µM* | · |
| ALDH1A1 inh | 0.0%[13.5 µM] | ? | ? | -5.2% | -8.3% | 1.2% | · | 9.3%[13.5 µM] |

33. COc1cc(/C=N/NC(=O)CN2CCCCC2)ccc1OCc1ccccc1
34. O=C(CN1CCCC1)Nc1ccc(NC(=O)Nc2ccccc2)cc1
35. Cc1ccc(N2C(=O)NC(=O)/C(=C\c3ccoc3)C2=O)cc1
36. O=C1NC(=S)N(c2ccc(F)cc2)C(=O)/C1=C\c1ccoc1
37. O=C1NC(=S)N(c2ccc(F)cc2)C(=O)/C1=C/c1ccco1
38. Cc1ccc(-n2c(C)cc(/C=C3/C(=O)NC(=O)N(C)C3=O)c2C)cc1
39. COc1ccc(N2C(=O)/C(=C/c3cc(C)n(-c4ccc(C)cn4)c3C)C(=O)NC2=S)c(OC)c1
40. O=C(Cc1coc2cc3c(cc12)CCC3)OCC(=O)N1CCCC1=O

| entry no. | 33 | 34 | 35 | 36 | 37 | 38 | 39 | 40 |
| --- | --- | --- | --- | --- | --- | --- | --- | --- |
| miR-21 FLuc | -42.2% | -46.5% | 0.6% | 0.7% | 7.7% | -3.5% | -2.3% | ? |
| LMNA splice mod | 6.1% | 2.5% | 11.5%[46 µM] | · | · | 0.0% | -23.5%[46 µM] | · |
| JMJD2E inh | ? | -0.3% | -14.4% | ? | · | -18.1% | ? | -9.4% |
| Sfp inh | -10.4% | 8.1% | ? | 20µM* | 25.1µM* | -17.4% | 35.5µM* | 2.2% |
| G9a block | 14.5%[59 µM] | 21.0%[59 µM] | 44.7µM* | 7.94µM* | ? | ? | 31.6µM* | 41.0% |
| ALDH1A1 inh | 22.4µM* | 7.3% | ? | ? | · | ? | ? | -5.8% |

In the list so far, these contain a thiophene ring, fused or not:
6. NCC(CC(=O)O)c1ccc(Cl)s1 (stereo unspecified)
17. Cc1ccc(C(=O)Nc2c(C(=O)Nc3ccc(C)c(C)c3)sc3nc(C)cc(C)c23)cc1

| entry no. | 6 | 17 |
| --- | --- | --- |
| miR-21 FLuc | · | -53.0% |
| LMNA splice mod | · | · |
| JMJD2E inh | · | · |
| Sfp inh | 23.9% | · |
| G9a block | 37.0%[59 µM] | 10.5%[59 µM] |
| ALDH1A1 inh | -3.2% | · |

Further results:
41. COC(=O)CSc1cc([N+](=O)[O-])cc2c1c(C1OCCO1)nn2-c1ccccc1
42. Nc1ccc(S(=O)(=O)c2ccc(NCN3C(=O)NC(=O)C(=O)C3=O)cc2)cc1
43. CC(C(=O)c1c[nH]c2ccccc12)N1CCN(C(=O)c2ccco2)CC1 (stereo unspecified)
44. COc1ccc(OC)c(N2C(=O)CC(=O)NC2=O)c1
45. O=C1NC(=S)N(c2ccc(Cl)cc2)C(=O)/C1=C/N1CCN(C(=O)c2ccco2)CC1
46. COc1ccc(OC)c(N2C(=O)/C(=C/c3ccco3)C(=O)NC2=S)c1

| entry no. | 41 | 42 | 43 | 44 | 45 | 46 |
| --- | --- | --- | --- | --- | --- | --- |
| miR-21 FLuc | -0.2% | · | -7.1% | -0.5% | -5.5% | 0.0% |
| LMNA splice mod | ? | · | · | · | -5.6% | · |
| JMJD2E inh | 3.9% | · | -5.5% | · | ? | · |
| Sfp inh | 19.9% | · | 22.2% | 2.8% | 44.7µM* | 17.8µM* |
| G9a block | 7.3% | · | ? | ? | 50.1µM* | 1.78µM* |
| ALDH1A1 inh | 1.2% | 9.3%[13.5 µM] | 3.9% | · | ? | · |
